Data as given in patent publication US11952334B2, “Cocrystals of ubiquinone and compositions comprising them” (CENTER FOR INTELLIGENT RESEARCH IN CRYSTAL ENGINEERING, S.L., priority 2018, dated 2024).

Assay: Particle size analysis (granulometry) by laser dispersion
Assay type: physicochemical
Conditions: dispersing fluid silicone oil
Procedure: Particle size can be determined, for example by laser dispersion on a Beckman Coulter LS13320 provided with a MLM (Micro Liquid Module) (measure range: 0.4 to 2000 μm; optic model: Fraunhofer.rdf, PIDS included).
Particle size analysis (granulometry) was performed by laser dispersion on a Beckman Coulter LS13320 provided with a MLM (Micro Liquid Module) (measure range: 0.4 to 2000 μm; optic model: Fraunhofer.rdf, PIDS included).
In a beaker about 10 ml of silicone oil and a microspoon of sample were placed. The sample was homogeneized by pipetting it repeatedly with a pasteurized pipette and by subjecting it to ultrasonic treatment (30 KHz; 200 W). The module was cleaned and filled with silicone oil as a dispersing fluid. Before each analysis, an optical alignment of the laser and a measure of the instrument noise was made.

- D10: 2.06 μm
- D50: 10.9 μm
- D90: 32.2 μm
Substance: Ubiquinone:resorcinol cocrystal (2:1) [Compound P57-V]
